From patent publication US20250051275A1, “PYRROLE DERIVATIVE OR […] OR SITOLOGICALLY ACCEPTABLE SALTS THEREOF, AND COMPOSITION FOR PREVENTION, AMELIORATION OR TREATMENT OF GASTROINTESTINAL DISORDERS COMPRISING SAME AS ACTIVE INGREDIENT” (HANA PHARM CO., LTD., priority 2021, published 2025)

By UniProt entry, the sequences of proteins in these tests, tags left out. Residues count along the entry.
UniProt P19156, 2-1034 limits assumed: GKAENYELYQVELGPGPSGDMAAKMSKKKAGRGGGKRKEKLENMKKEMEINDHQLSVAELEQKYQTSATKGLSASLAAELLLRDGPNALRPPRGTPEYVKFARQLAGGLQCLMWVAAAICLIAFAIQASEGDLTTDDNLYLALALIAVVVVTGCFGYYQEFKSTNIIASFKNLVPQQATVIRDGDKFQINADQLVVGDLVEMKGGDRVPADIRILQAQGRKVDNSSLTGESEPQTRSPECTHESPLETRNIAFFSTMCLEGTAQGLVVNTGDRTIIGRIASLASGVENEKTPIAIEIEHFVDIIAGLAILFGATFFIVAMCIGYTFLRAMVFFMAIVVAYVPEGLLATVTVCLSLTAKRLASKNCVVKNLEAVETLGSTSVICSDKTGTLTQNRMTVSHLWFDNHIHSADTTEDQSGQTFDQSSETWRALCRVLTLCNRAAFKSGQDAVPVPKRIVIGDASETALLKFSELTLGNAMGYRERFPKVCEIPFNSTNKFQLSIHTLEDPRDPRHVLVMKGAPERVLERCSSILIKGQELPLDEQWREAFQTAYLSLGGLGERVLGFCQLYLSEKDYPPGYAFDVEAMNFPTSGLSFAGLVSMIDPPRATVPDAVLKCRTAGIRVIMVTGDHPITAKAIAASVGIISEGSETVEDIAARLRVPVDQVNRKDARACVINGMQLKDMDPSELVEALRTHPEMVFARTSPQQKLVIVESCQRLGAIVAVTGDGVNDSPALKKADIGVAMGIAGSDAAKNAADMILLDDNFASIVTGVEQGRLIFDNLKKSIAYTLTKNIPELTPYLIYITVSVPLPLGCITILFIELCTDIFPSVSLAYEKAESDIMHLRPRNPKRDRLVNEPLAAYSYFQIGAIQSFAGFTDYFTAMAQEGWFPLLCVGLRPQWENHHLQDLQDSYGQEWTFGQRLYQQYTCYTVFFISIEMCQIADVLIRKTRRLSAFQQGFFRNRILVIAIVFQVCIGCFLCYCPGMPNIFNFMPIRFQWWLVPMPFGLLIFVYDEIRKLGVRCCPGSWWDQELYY
UniProt P18434, whole entry partner: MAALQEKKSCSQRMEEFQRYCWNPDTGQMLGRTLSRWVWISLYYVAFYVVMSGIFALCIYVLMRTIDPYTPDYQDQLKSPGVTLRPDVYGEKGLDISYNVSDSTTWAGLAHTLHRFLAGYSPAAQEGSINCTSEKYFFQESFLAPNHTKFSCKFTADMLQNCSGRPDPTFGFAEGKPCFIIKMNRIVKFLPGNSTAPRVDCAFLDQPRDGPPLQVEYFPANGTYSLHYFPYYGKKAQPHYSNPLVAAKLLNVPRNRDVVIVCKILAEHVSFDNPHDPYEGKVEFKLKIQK

Assays:
pH of gastric juice = experiment: Pharmacodynamic profile (pH of gastric juice) in beagles after histamine; settings: beagle, oral 0.2 mg/kg
[1] = biological target: proton pump (H+/K+-ATPase) (Sus scrofa (Pig), UniProt P19156); experiment: Inhibitory activity on proton pump (H+/K+-ATPase) activity; settings: read-out: Proton pump inhibitory activity (IC50, nM), class symbol; porcine gastric mucosal microsomes, 5 mM KCl, pH 6.4
[2] = Pharmacokinetic profile in beagles, single oral dose; format: in vivo, beagle dogs; settings: beagle, oral single dose 0.2 mg/kg, mean n=3

IC50 [1]: < 100 nM
AUClast [2]: 85.5 ng·h/mL
Cmax [2]: 36.4 ng/mL
Tmax [2]: 1.0 h
SMILES: CNCc1cc(-c2ccccc2F)n(S(=O)(=O)c2cccnc2)c1
Average pH of gastric juice (pH of gastric juice; 0 h): 6.8
Average pH of gastric juice (pH of gastric juice; 2.5 h): 4.8
Average pH of gastric juice (pH of gastric juice; 4.5 h): 6.3
Average pH of gastric juice (pH of gastric juice; 7.5 h): 4.8
Average pH of gastric juice (pH of gastric juice; 25.5 h): 2.3
Average pH of gastric juice (pH of gastric juice; 49.5 h): 3.0
